Data from patent EP2272817A1, “PAI-1 INHIBITOR” (Institute of Medicinal Molecular Design, Inc., priority 2008, dated 2009).

Sequences of proteins named here, by UniProt entry; tags and fusion partners are left off. Residues count along the entry.
UniProt P05121, 24-402 limits assumed: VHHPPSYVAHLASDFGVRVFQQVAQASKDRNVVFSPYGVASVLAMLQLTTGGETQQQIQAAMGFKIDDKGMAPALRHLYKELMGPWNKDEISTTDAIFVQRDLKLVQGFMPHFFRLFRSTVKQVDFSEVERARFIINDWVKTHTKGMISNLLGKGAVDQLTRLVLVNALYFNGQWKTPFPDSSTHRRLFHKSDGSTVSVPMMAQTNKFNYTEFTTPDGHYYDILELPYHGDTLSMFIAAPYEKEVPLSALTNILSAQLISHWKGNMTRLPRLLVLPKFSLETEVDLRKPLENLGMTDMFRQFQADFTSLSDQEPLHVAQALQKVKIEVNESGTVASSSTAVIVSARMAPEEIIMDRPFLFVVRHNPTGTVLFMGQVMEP

Molecular target: recombinant human PAI-1 (Homo sapiens, UniProt P05121)
Test: Test Example 2: Human PAI-1 Inhibitory Activity (pH 7.4 HEPES buffer, 10 minutes incubation with two-chain tPA)
Type: biochemical
Conditions: Compound Concentration 0.1µM; tested form: free acid

CCC(CC)Oc1ccc(-c2ccc(OC(F)(F)F)cc2)cc1N(CCCc1ccccc1)C(=O)C(=O)O
Inhibition Rate of PAI-1 Activity (%): 0%
